According to US20210244738A1, “COMPOSITIONS AND METHODS FOR SUPPRESSING NONSENSE MUTATIONS” (The UAB Research Foundation, priority 2018, published 2021):

What was measured:
Idua-W402X MEFs [1] = experiment: MEF α-L-iduronidase activity assay in Idua-W402X MEFs; format: cell-based, mouse; conditions: for α-L-iduronidase activity relative to background levels / α-L-iduronidase activity restored compared with G418: 60 μM or 30 μg/ml, 48 hours (FIG. 2); for effect on α-L-iduronidase activity over the concentrations indicated: 48 hours (FIG. 3A, 3B, 7C, 7E); for synergy with G418 or PTC124 on α-L-iduronidase activity: combined with G418 or PTC124 (FIG. 3A, 3B)
[2] = tested on: Idua-W402X dual luciferase reporter in HEK293 cells; experiment: Idua-W402X dual luciferase readthrough reporter in HEK293 cells; format: cell-based; conditions: 24 hours (FIG. 5B)
[3] = tested on: Idua mRNA in Idua-W402X MEFs; experiment: Steady state Idua mRNA by qPCR in Idua-W402X MEFs; format: cell-based, mouse; conditions: 48 hours, relative to vehicle only
Idua-W402X MEFs [4] = experiment: MEF glycosaminoglycan quantitation (Blyscan) in Idua-W402X MEFs; format: cell-based, mouse; conditions: 48 hours; for effect on GAG accumulation: dye-binding assay (FIG. 4, 7D)
Protocol: MEFs were seeded into 6-well culture dishes at a density of 5×10^4 cells per well. MEFs were grown to 50% confluency and then treated with screening agents for 48 hours. Subsequently, the media was removed and the cells were scraped into 500 μl of 0.2 mg/ml papain in pH 6.5 phosphate buffer containing 0.6 mg/ml cysteine. The cell lysates were incubated in the papain solution at 65° C. with gentle agitation for 3 hours. Samples were briefly microfuged to remove debris. […] Briefly, 50 μl of each supernatant was mixed with 500 μl of the Blyscan Dye Reagent to bind sulfated GAGs. The dye-bound GAGs were pelleted by microfuging for 10 minutes at 10,000 g at room temperature. 500 μl of the Blyscan Dye Dissociation Reagent was added to each sample to dissociate the GAGs from the dye. 200 μl of each sample was transferred to a 96-well plate (Corning 3631) and the absorbance was measured at a wavelength of 650 nm absorbance using a GloMax® Discover System (Promega). […] The total protein concentration in each lysate was determined using the Bio-Rad Protein Assay from a standard curve generated using bovine serum albumin. The GAG levels are expressed as nanograms of GAGs per milligram of total protein.

Idua-W402X mice [5] = experiment: Specific GAGs in urine of Idua-W402X mice by mass spectrometry; format: in vivo, mouse; conditions: 120 mg/kg once daily oral gavage, 2 weeks
Protocol: Doses ranged from 30-120 mg/kg.
Urine samples were collected at the end of treatment and subjected to mass spectrometry analysis to quantify the levels of dermatan sulfate (FIG. 9A), heparan sulfate (FIG. 9B), and chondroitin sulfate (FIG. 9C).

Idua-W402X mice [6] = experiment: GAG quantitation in tissues of Idua-W402X mice after oral triamterene; conditions: two weeks

| Structure (SMILES) | α-L-iduronidase activity relative to background levels (Idua-W402X MEFs [1]) | Idua-W402X readthrough relative to basal levels [2] | α-L-iduronidase activity restored compared with G418 (Idua-W402X MEFs [1]) | effect on α-L-iduronidase activity over the concentrations indicated (Idua-W402X MEFs [1]) | synergy with G418 or PTC124 on α-L-iduronidase activity (Idua-W402X MEFs [1]) | increase of Idua mRNA levels [3] [fold] | effect on GAG accumulation (Idua-W402X MEFs [4]) | chondroitin sulfate in urine (Idua-W402X mice [5]) | dermatan sulfate in urine compared to untreated controls (Idua-W402X mice [5]) | heparan sulfate in urine compared to untreated controls (Idua-W402X mice [5]) | tissue GAGs relative to wildtype levels (Idua-W402X mice [6]; 120 mg/kg once daily oral gavage, all tissues examined) | tissue GAGs relative to vehicle controls (Idua-W402X mice [6]; 30-120 mg/kg once daily oral gavage, bone, brain, heart, kidney, liver, lung, spleen) | GAG level reached relative to wildtype cells (Idua-W402X MEFs [4]; dye-binding assay (FIG. 4)) | effect of co-administration on the ability of triamterene to relieve MPS I-H biochemical endpoints (Idua-W402X MEFs [1]; thiazide combined with triamterene, 48 hours (FIG. 7E)) |
| --- | --- | --- | --- | --- | --- | --- | --- | --- | --- | --- | --- | --- | --- | --- |
| O=C(CCCCCCC(=O)Nc1ccccc1)NO [vorinostat] | increased α-L-iduronidase activity above background levels | – | – | – | – | – | – | – | – | – | – | – | – | – |
| COc1cc2nc(N3CCN(C(=O)C4COc5ccccc5O4)CC3)nc(N)c2cc1OC (stereo not shown) [Doxazocin] | increased α-L-iduronidase activity above background levels | no significant increase in readthrough relative to basal levels | restored more α-L-iduronidase activity than the potent, but toxic, aminoglycoside G418 | increased α-L-iduronidase activity in a dose-dependent manner | synergy was not observe | ~2 | dose-dependent decrease in GAG accumulation | – | – | – | – | – | – | – |
| Nc1nc(N)c2nc(-c3ccccc3)c(N)nc2n1 [Triamterene, 2,4,7-triamino-6-phenylpteridine] | increased α-L-iduronidase activity above background levels | dose-dependent increase in Idua-W402X readthrough | restored more α-L-iduronidase activity than the potent, but toxic, aminoglycoside G418 | increased α-L-iduronidase activity in a dose-dependent manner | synergy was not observe | – | dose-dependent decrease in GAG accumulation | remained unchanged | significantly decreased | significantly decreased | reduced GAGs to wildtype levels in all tissues examined | dose-dependent decrease in GAGs | reducing GAGs to near wildtype levels | – |
| NS(=O)(=O)c1cc2c(cc1Cl)NCNS2(=O)=O [thiazide] | – | – | – | did not affect | – | – | did not affect | – | – | – | – | – | – | did not inhibit the ability of triamterene to relieve these MPS I-H biochemical endpoints |
| N=C(N)NC(=O)c1nc(Cl)c(N)nc1N [amiloride] | – | – | – | did not generate a significant, dose-dependent increase in α-L-iduronidase activity | – | – | did not reduce GAGs | – | – | – | – | – | – | – |
